# Laboratory results from BindingDB's records for doi:10.1021/jm8010993.
# Chains of the proteins cited; added tags and fusions are not shown.
# UniProt P23975, whole entry: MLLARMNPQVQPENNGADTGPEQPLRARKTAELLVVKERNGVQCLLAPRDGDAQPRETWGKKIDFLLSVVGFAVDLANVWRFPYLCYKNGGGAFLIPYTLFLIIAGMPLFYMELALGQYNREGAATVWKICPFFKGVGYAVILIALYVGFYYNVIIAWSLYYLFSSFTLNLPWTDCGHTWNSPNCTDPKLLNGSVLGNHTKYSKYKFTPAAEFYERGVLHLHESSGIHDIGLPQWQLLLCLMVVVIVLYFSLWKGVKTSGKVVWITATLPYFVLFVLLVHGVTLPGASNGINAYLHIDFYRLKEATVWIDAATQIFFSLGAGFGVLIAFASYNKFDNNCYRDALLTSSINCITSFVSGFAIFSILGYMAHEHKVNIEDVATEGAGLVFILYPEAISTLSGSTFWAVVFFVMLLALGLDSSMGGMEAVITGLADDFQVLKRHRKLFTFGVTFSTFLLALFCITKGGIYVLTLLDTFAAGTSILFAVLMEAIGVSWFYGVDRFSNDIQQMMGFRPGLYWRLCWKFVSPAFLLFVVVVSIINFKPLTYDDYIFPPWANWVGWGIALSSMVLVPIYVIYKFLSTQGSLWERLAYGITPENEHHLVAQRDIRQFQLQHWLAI
# Biological target: Sodium-dependent noradrenaline transporter (Homo sapiens, UniProt P23975)
# Assay: PDE4 Enzyme Assay
smiles,measurement,value
COc1ccc(F)cc1CCCC1CCC(CCN)O1 (stereo unspecified),EC50,1.93 µM
